Laboratory results taken from patent US20190365774A1, “COMBINATION THERAPY OF BACE-1 INHIBITOR AND ANTI-N3PGLU ABETA ANTIBODY” (Eli Lilly and Company, priority 2016, published 2019).

B1: Antibody I: anti-N3pGlu Abeta antibody, light chain SEQ ID NO: 12 and heavy chain SEQ ID NO: 11 (antibody)
heavy: QVQLVQSGAEVKKPGSSVKVSCKASGYTFTDYYINWVRQAPGQGLEWMGWINPGSGNTKYNEKFKGRVTITADESTSTAYMELSSLRSEDTAVYYCTREGETVYWGQGTLVTVSSASTKGPSVFPLAPSSKSTSGGTAALGCLVKDYFPEPVTVSWNSGALTSGVHTFPAVLQSSGLYSLSSVVTVPSSSLGTQTYICNVNHKPSNTKVDKKV[sequence of human IgG1 Fc not given]
light: DVVMTQSPLSLPVTLGQPASISCKSSQSLLYSRGKTYLNWFQQRPGQSPRRLIYDVSKLDSGVPDRFSGSGSGTDFTLKISRVEAEDVGVYYCVQGTHYPFTFGQGTKLEIKRTVAAPSVFIFPPSDEQLKSGTASVVCLLNNFYPREAKVQWKVDNALQSGNSQESVTEQDSKDSTYSLSSTLTLSKADYEKHKVYACEVTHQGLSSPVTKSFNRGEC
B2: Antibody II: anti-N3pGlu Abeta antibody, light chain SEQ ID NO: 13 and heavy chain SEQ ID NO: 11 (antibody)
heavy: B1 heavy
light: DIQMTQSPSTLSASVGDRVTITCKSSQSLLYSRGKTYLNWLQQKPGKAPKLLIYAVSKLDSGVPSRFSGSGSGTEFTLTISSLQPDDFATYYCVQGTHYPFTFGQGTKLEIKRTVAAPSVFIFPPSDEQLKSGTASVVCLLNNFYPREAKVQWKVDNALQSGNSQESVTEQDSKDSTYSLSSTLTLSKADYEKHKVYACEVTHQGLSSPVTKSFNRGEC

Test system: deposited Aβ
Experiment: Ex vivo target engagement, immunohistochemistry on fixed PDAPP brain sections
Type: binding
Details: brain sections from aged PDAPP mice (25-month old), 20 μg/mL antibody
Description: Secondary HRP reagents specific for human IgG are employed and the deposited plaques are visualized with DAB-Plus (DAKO). Biotinylated murine 3D6 antibody followed by Step-HRP secondary is used as a positive control.

Molecule	labeling of deposited Aβ in PDAPP hippocampus
B1	labeled a subset of deposits
B2	labeled a subset of deposits
